# Values quoted from earlier work, collected in patent publication US10517933B2, “Method of treating androgen receptor negative prostate tumors and their metastases” (DREXEL UNIVERSITY, priority 2015, dated 2019).
# Columns and labels:
# [1] = target: T1, IL1β (Homo sapiens, UniProt P01584); details: cited from earlier work
# [2] = target: T1, IL1β; details: cited from earlier work; remark: listed apart in the source
substance,measurement,setting,value
XOMA-052: a potent anti-IL1β humanized neutralizing antibody,binding affinity for human IL1β,[1],300 femtomolar
same,in vitro potency,[2],low picomolar range
